pEC50, pKi: −log10 of the molar value.
Columns and labels:
[1] = target: T1, ORL-1 receptor (Homo sapiens, UniProt P41146); assay: Radioligand dose-displacement binding assay, ORL-1; details: read-out: Ki ORL-1 [Average ± SD]; determined according to the procedures of U.S. Pat. No. 8,476,271
[2] = target: T1, ORL-1 receptor; assay: Functional [^35S]GTPγS binding assay, ORL-1; assay type: biochemical

Sequences of proteins named here, by UniProt entry; tags and fusion partners are left off. A change or cut given only in a name is not applied to a line headed by its entry.
UniProt P41146: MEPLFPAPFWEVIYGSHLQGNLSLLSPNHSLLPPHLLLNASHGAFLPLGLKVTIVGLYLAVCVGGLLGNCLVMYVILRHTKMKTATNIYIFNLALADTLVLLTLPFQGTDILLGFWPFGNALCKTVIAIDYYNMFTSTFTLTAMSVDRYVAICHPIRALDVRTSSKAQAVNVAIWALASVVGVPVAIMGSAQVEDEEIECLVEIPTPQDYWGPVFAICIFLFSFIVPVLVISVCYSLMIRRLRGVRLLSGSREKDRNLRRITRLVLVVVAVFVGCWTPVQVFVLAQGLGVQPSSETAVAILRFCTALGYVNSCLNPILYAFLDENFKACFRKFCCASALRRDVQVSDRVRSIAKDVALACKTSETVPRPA

How did the pKi [1] turn out when `CNC(=O)Cn1c(=O)n(C2CCN([C@@H]3Cc4cccc5cccc3c45)CC2)c2ccccc21` [Compound W-212393] was run?
Its pKi is 9.15.

And the “agonist classification at ORL-1 from Emax” value ([2]; from ORL-1 Emax results in Table 21)?
Its value is “full agonist”.

And the pEC50 ([2]; read-out: GTPγS ORL-1 EC50 [Mean ± Standard Error of the Mean], determined according to the procedures of U.S. Pat. No. 8,476,271)?
Its pEC50 is 8.69.

From patent publication US10974081B2, “Treatment and prevention of sleep disorders” (Purdue Pharma L.P., priority 2016, dated 2021)
